Inhibition data for two compounds are collected here from ChEMBL document CHEMBL6109068, “Design, synthesis, and biological evaluation of 5'-deoxy (N)-methanocarbanucleoside derivatives as A3 adenosine receptor ligands” (Bioorg Med Chem Lett, 2025).

Chains of the proteins cited; added tags and fusions are not shown.
UniProt P0DMS8, whole entry: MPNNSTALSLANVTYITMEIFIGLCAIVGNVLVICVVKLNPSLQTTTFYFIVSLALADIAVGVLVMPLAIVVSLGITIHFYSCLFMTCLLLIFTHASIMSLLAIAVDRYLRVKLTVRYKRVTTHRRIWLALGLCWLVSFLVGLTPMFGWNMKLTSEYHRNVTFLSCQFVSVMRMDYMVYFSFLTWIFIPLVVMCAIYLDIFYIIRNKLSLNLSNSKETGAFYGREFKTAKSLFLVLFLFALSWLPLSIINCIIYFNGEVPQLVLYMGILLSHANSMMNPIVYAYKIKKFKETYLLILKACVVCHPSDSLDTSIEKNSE

The target in the assay is Adenosine receptor A3 (Homo sapiens, UniProt P0DMS8). Put plainly: Displacement of [3H]-NECA from human A3AR stably expressed in HeLa cell membrane at 10 uM relative to control. It is filed as cell membranes.

A word on the inhibition: it is the change of the read-out against control, counted positive when it falls.

As to `C[C@]12C[C@@H]1[C@@H](n1cnc3c(NCc4cccc(F)c4)ncnc31)[C@H](O)[C@@H]2O`, the inhibition came to 80%.
For `C[C@]12C[C@@H]1[C@@H](n1cnc3c(N)ncnc31)[C@H](O)[C@@H]2O` the value was 89%.
